# Experimental data reported in PubChem BioAssay AID2052 (NMMLSC, 2009).
# Only a part is listed here, and it is no random draw. Active and inactive are the calls of the source.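 How the source made its calls: active means response, share of CD8 T cells binding vesicles, and their 90th percentile fluorescence all below set limits (cut at about 80% in these data, passing the limit was not always enough); inactive means the rest, inconclusive results apart.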
# Assay: modulators of CD8 T cell-vesicle binding, primary screen, mouse 2C CD8+ T cells, flow cytometry (AID 2052);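 further: values below 100% mean blocked vesicle binding to the CD8+ T cells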
# Details: 2C CD8+ T cell-vesicle binding, at 7 µM, hits give low values
# Procedure, shortened: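 Material: 2C TCR transgenic mouse naive CD8+ T cells, MACS-purified. Also added: QL9-charged Drosophila Ld/ICAM-1/B7-1 vesicles. Timing: binding 1.5 h at 37 °C. Measured by: high-throughput flow cytometry with anti-B7-1 and anti-CD8 staining. Read-out: percent CD8+ FL2 mean versus row control. Controls: Unloaded micro-vesicles (low), QL9 vesicles with 0.7% DMSO (high).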
row,SMILES,response (vesicle binding)
1,CCOP1(=S)c2c(C)nn(CCC#N)c2N=C(c2ccc(F)cc2)N1C (configuration not stated),inactive: 211%
2,CN(C(=O)Cc1ccccc1)[C@@H]1CC[C@]2(CCCO2)C[C@H]1N1CCCC1,inactive: 650%
3,N#CCCN(C(=O)COC(=O)C(O)(c1ccccc1)c1ccccc1)c1ccc(F)cc1,inactive: 324%
4,NC(=O)Nc1ccc([As](=O)(O)O)cc1,inactive: 460%
5,O=C(O)COc1ccc([As](=O)(O)O)cc1[N+](=O)[O-],inactive: 370%
6,Nc1ccccc1[As](=O)(O)c1ccccc1,inactive: 641%
7,CS(=O)(=O)c1cc([N+](=O)[O-])c2no[n+]([O-])c2c1,inactive: 198%
8,O=P(Nc1nccs1)(Oc1ccccc1)Oc1ccccc1,inactive: 374%
9,O=C(O)c1cccc(Nc2c([N+](=O)[O-])cc([N+](=O)[O-])cc2[N+](=O)[O-])c1,inactive: 220%
10,CCOP1(=S)c2c(C)nn(CCC#N)c2N=C(c2ccccc2F)N1C (configuration not stated),inactive: 804%
11,CCOP(=O)(Nc1cccc2ccccc12)OCC,inactive: 292%
12,Cc1ccc(C)c(NP(C)(=O)Oc2ccccc2)c1 (configuration not stated),inactive: 218%
13,CCCOP(=S)(Nc1nc(N)cc(=O)[nH]1)OCCC,inactive: 359%
14,Cc1ccc(NCCc2c([N+](=O)[O-])cc([N+](=O)[O-])cc2[N+](=O)[O-])cc1,inactive: 646%
15,Nc1cccc2c([As](=O)(O)O)cccc12,inactive: 85.9%
16,Cc1cc(C)cc(OP(C)(=O)Nc2ccccn2)c1 (configuration not stated),inactive: 466%
17,CP(=O)(Nc1cccc(Br)c1)Oc1ccccc1 (configuration not stated),inactive: 299%
18,CCOC(=O)c1ccc(NP(C)(=O)Oc2cc(C)cc(C)c2)cc1 (configuration not stated),inactive: 341%
19,Cc1cc(C)cc(OP(C)(=O)Nc2ccc(C)cc2C)c1 (configuration not stated),inactive: 469%
20,Cc1cccc(OCC(=O)OC2CN3CCC2CC3)c1 (configuration not stated),inactive: 285%
21,O=[As](O)(c1cccc(O)c1)c1cccc(O)c1,inactive: 398%
22,COc1ccccc1OP(C)(=O)Nc1cccc(Br)c1 (configuration not stated),inactive: 1080%
23,CS(=O)(=O)c1ccc(Cl)c(NC(=O)COC(=O)C(O)(c2ccccc2)c2ccccc2)c1,inactive: 178%
24,O=[As](O)(O)c1cccnc1,inactive: 173%
25,COc1cc(C(=O)NCC2(N3CCOCC3)CCCCC2)cc(Cl)c1OC(C)C,inactive: 160%
26,O=C(OC1CN2CCC1CC2)c1ccc(Cl)cc1 (configuration not stated),inactive: 1230%

row,SMILES,response (vesicle binding)
1,COc1ccc(N/C(=N/P(=O)(N2CCOCC2)N2CCOCC2)N2CCOCC2)cc1,inactive: 345%
2,COc1cc(I)ccc1[As](=O)(O)O,inactive: 181%
3,COc1ccc2nc(NP(=O)(c3ccccc3)c3ccccc3)sc2c1,inactive: 290%
4,Cc1cc(=O)[nH]c(N[N+](=O)[O-])n1,inactive: 444%
5,CCN(CC)CCCOC(=O)C(O)(c1ccccc1)c1ccccc1,inactive: 391%
6,O=C(OC1CN2CCC1CC2)C12CC3CC(CC(C3)C1)C2 (configuration not stated),inactive: 534%
7,Cc1c2c(nc3ccccc13)SC(C(Cl)Cl)C2 (configuration not stated),inactive: 240%
8,Cc1cc(C)cc(OP(C)(N)=O)c1 (configuration not stated),inactive: 152%
9,COc1ccc(OP(C)(=O)Nc2cccc(F)c2)cc1 (configuration not stated),inactive: 247%
10,O=[N+]([O-])c1cc([N+](=O)[O-])c(-c2ccn[nH]2)s1,inactive: 305%
11,CC(C)NC(=O)NP(=O)(Oc1ccccc1)Oc1ccccc1,inactive: 354%
12,COc1ccccc1OP(C)(=O)Nc1cc(Cl)ccc1C (configuration not stated),inactive: 192%
13,CCN(CC)C(=S)SC(NC=O)C(Cl)(Cl)Cl (configuration not stated),inactive: 280%
14,Cc1ccc(NP(C)(=O)Oc2ccccc2)c(C)c1 (configuration not stated),inactive: 176%
15,CC(C)c1ccc(OP(=O)(Nc2ccccn2)Oc2ccccc2F)cc1 (configuration not stated),inactive: 782%
16,COc1ccccc1OP(C)(=O)Nc1ccc(C)cc1 (configuration not stated),inactive: 166%
17,ClCCSc1nnc(-c2cccnc2)o1,inactive: 308%
18,CCOC(=O)c1ccc(NP(C)(=O)Oc2ccccc2)cc1 (configuration not stated),inactive: 183%
19,O=[N+]([O-])c1ccc2c(c1)C=Nc1ccccc1O2,inactive: 84.4%
20,Cc1ccc2nc3c(c(C)c2c1)CC(C(Cl)Cl)S3 (configuration not stated),inactive: 193%
21,Cc1cccc(C)c1OP(C)(N)=O (configuration not stated),inactive: 367%
22,Cc1ccc(OP(=O)(Nc2ccc([N+](=O)[O-])cn2)Oc2ccc(C)cc2)cc1,inactive: 102%
23,CC(C)(C)c1ccc(OP(C)(=O)Nc2ccc(SC(F)(F)F)cc2)cc1 (configuration not stated),inactive: 171%
24,COc1cc(C(=O)NCC2(N3CCOCC3)CCCCC2)ccc1OCC(C)C,inactive: 364%
25,C[As](=O)(O)c1cccc(C(=O)O)c1,inactive: 207%
26,O=[As](O)(c1ccc(O)cc1)c1ccccc1O,inactive: 449%

row,SMILES,response (vesicle binding)
1,O=[N+]([O-])c1cc([N+](=O)[O-])c(Nc2cccnc2)c([N+](=O)[O-])c1,inactive: 502%
2,O=[N+]([O-])c1ccc(Nc2ccc(Oc3ccc([N+](=O)[O-])cc3[N+](=O)[O-])cc2)c([N+](=O)[O-])c1,inactive: 121%
3,CP(=O)(Nc1ccccc1Br)Oc1ccccc1 (configuration not stated),inactive: 242%
4,COc1ccccc1OP(C)(=O)Nc1ccccc1 (configuration not stated),inactive: 954%
5,Cc1cc(SC(NC=O)C(Cl)(Cl)Cl)ncn1 (configuration not stated),inactive: 384%
6,O=P(Nc1ccccn1)(c1cccc2ccccc12)c1cccc2ccccc12,inactive: 257%
7,CCOC(=O)Nc1cccc([As](=O)(O)O)c1,inactive: 346%
8,CP(=S)(Nn1cnnc1)Oc1ccccc1 (configuration not stated),inactive: 278%
9,Cc1cc(SC(NC(=O)c2ccccc2)C(Cl)(Cl)Cl)nc(C(C)C)n1 (configuration not stated),inactive: 366%
10,CCOC(=O)Nc1ccc([As](=O)(O)O)c(O)c1,inactive: 744%
11,CCC(C)N(CC(C)C)C(=S)SC(NC(C)=O)C(Cl)(Cl)Cl (configuration not stated),inactive: 164%
12,O=[N+]([O-])c1cc([N+](=O)[O-])c(O)c([N+](=O)[O-])c1.c1ccc(Oc2ccncc2)cc1,inactive: 125%
13,CCOC(=O)c1ccc(NP(C)(=O)Oc2ccc(OC)cc2)cc1 (configuration not stated),inactive: 170%
14,CCOC(=O)c1ccc(NC(=O)C(C)(CCl)SC)cc1 (configuration not stated),inactive: 455%
15,O=C(OC1CN2CCC1CC2)c1cccc([N+](=O)[O-])c1 (configuration not stated),inactive: 20.5%
16,CCOP(C)(=S)SCC(=O)NC(C)C(=O)O (configuration not stated),inactive: 222%
17,O=C(Nc1ccncc1[N+](=O)[O-])c1ccc([N+](=O)[O-])cc1[N+](=O)[O-],inactive: 180%
18,Cc1cc(C)cc(OP(C)(=O)Nc2ccc(SC(F)(F)F)cc2)c1 (configuration not stated),inactive: 294%
19,CP(=O)(NC(=O)Nc1ccccc1)Oc1ccccc1 (configuration not stated),inactive: 663%
20,O=C(COc1ccccc1)OC1CN2CCC1CC2 (configuration not stated),inactive: 247%
21,CCc1ccc(OP(C)(=O)N2CCN(c3ccc([N+](=O)[O-])cc3)CC2)cc1 (configuration not stated),inactive: 444%
22,CP(=O)(Oc1ccccc1)OC(c1ccccc1)C(F)(F)F (configuration not stated),inactive: 262%
23,COP1(=S)c2c(C)nn(CCC#N)c2N=C(c2ccc(F)cc2)N1C (configuration not stated),inactive: 520%
24,CP(=O)(Nc1ccc(SC(F)(F)F)cc1)Oc1ccc(Cl)cc1 (configuration not stated),inactive: 332%
25,Cc1cccc(C)c1OP(C)(=O)Nc1ccc(SC(F)(F)F)cc1 (configuration not stated),inactive: 206%
